Target: hJAK3 kinase domain (aa781-end) (Homo sapiens (Human), UniProt P52333)
Test: JAK3 activity inhibition, kinase reaction (HTRF, TK substrate-biotin)
Details: JAK3 IC50, 6His tag-fused hJAK3 kinase domain, 10 min at room temperature

By UniProt entry, the sequences of proteins in these tests, tags left out. Residues count along the entry.
UniProt P52333, 781-1124 limits assumed: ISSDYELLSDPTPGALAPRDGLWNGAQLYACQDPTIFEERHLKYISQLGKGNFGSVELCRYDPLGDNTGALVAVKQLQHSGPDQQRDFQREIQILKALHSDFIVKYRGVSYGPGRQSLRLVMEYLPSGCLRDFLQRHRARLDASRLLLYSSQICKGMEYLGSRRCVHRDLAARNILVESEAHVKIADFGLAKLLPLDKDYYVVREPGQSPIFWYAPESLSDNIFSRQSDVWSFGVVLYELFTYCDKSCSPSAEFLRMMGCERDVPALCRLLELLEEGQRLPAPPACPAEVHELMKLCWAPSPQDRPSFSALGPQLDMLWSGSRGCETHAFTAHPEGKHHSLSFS

| SMILES | IC50 [nM] |
| --- | --- |
| COCCC(=O)N1CCCC12CCCN(c1ncnc3[nH]ccc13)C2 (racemic) [Compound 39] | 120 |
| CC1(C)CCN(C(=O)CC#N)C12CCN(c1ncnc3[nH]ccc13)C2 (racemic) [Compound 41] | 90 |
| N#Cc1cccc(C(=O)N2CCCC23CCN(c2ncnc4[nH]ccc24)C3)c1 (racemic) [Compound 64] | 180 |
| N#Cc1ccc(C(=O)N2CCCC23CCN(c2ncnc4[nH]ccc24)C3)cc1 (racemic) [Compound 65] | 190 |
| N#CCC(=O)N1CCCC12CCN(c1c(Cl)cnc3[nH]ncc13)C2 (racemic) [Compound 92] | 330 |

Results, then the compound that gave them:

| IC50 [nM] | SMILES |
| --- | --- |
| 6.6 | N#CCC(=O)N1CCC(F)(F)C12CCN(c1ncnc3[nH]ccc13)C2 (racemic) [Compound 55] |
| 31 | N#CCCNC(=O)N1CCCC12CCCN(c1ncnc3[nH]ccc13)C2 (racemic) [Compound 58] |
| 5.9 | CC1CCN(C(=O)CC#N)C12CCN(c1ncnc3[nH]ccc13)C2 (single isomer, unassigned) [Compound 54] |
| 11 | CC1CCN(C(=O)CC#N)C12CCN(c1ncnc3[nH]ccc13)C2 (single isomer, unassigned) [Compound 66] |

Source: patent publication US8609647B2, “Nitrogen-containing spirocyclic compounds and pharmaceutical uses thereof” (Japan Tobacco Inc., priority 2009, dated 2013)
